Data reported in paper PMC10484922, “Discovery of a selective and biologically active low-molecular weight antagonist of human interleukin-1β” (Nature Communications, 2023).

Chains of the proteins cited; added tags and fusions are not shown. Residues count along the entry.
UniProt P01584, 117-269: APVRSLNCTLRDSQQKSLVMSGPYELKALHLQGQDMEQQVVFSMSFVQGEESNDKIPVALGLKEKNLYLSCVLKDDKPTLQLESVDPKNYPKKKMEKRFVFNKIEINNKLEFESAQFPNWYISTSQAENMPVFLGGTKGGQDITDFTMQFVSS
UniProt P01584, 117-269 V163A: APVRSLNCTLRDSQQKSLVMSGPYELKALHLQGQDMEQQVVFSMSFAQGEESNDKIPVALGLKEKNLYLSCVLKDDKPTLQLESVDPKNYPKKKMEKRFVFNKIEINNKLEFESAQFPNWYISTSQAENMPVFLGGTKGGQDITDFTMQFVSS

Legend:
IL-1β [1] = target: T1, IL-1β (Homo sapiens, UniProt P01584); assay: NMR titration with lineshape fitting, hIL-1β; type: binding; set-up: Mature hIL-1β was expressed in Escherichia coli; made in house; host or cells: Escherichia coli BL21 (DE3), pET17b
Experimental: ^1H–^13C- and ^1H–^15N-HMQC spectra were recorded on Bruker AVANCE 600 MHz and 800 MHz spectrometers equipped with TXI-cryocooled probeheads. In ligand binding experiments, protein concentrations were typically 50 μM in PBS, pH 7.4. Backbone assignments of hIL-1β in the ligand-bound state and unliganded state were obtained by a combination of a 3D triple resonance experiment HNCACB and a ^15N-edited NOESY spectrum, which were processed using TOPSPIN 3.2 and analyzed using CcpNmr AnalysisAssign 3.1.0[46]. ^15N-CEST experiments were run at weak B1 radiofrequency fields of 25 and 12.5 Hz on a Bruker AVANCE 800 MHz spectrometer with 113 increments and a total sweep width of 28 ppm in the pseudo-3D dimension. Peak intensities were extracted by fitting pseudo-Voigt lineshape models using peakipy (https://github.com/j-brady/peakipy). Fitted peak intensities were subsequently used to generate CEST profiles, and exchange parameters were fitted using ChemEx (https://github.com/gbouvignies/ChemEx).
(1 picture or pasted object on this page, not shown here)

IL-1β [2] = target: T1, IL-1β; assay: TR-FRET IL-1β/hIL-1R1 receptor displacement assay; type: biochemical
Experimental: After 1 h incubation at room temperature, hIL-1R1 (1–332; Alexa 647 labeled; 50 nM final concentration) and anti-His-Europium W1024 (Perkin Elmer; Cat.No. AD0401, 1 nM final concentration) were added to a final volume of 10 μl per well. After 1 h of incubation at room temperature, time-resolved fluorescence was measured at λexc = 320 ± 20 nm, λem = 620 ± 25 nm/665 ± 25 nm using a Pherastar FSX plate reader. All experiments were run in triplicates. The data provided a typical saturation-binding curve, and the IC50 values were calculated by fitting the results to the Hill equation using Prism 7.0 and the in-house software Helios.

hIL-1β^V47A = target: T2, hIL-1β^V47A (Homo sapiens, UniProt P01584, V163A); assay: NMR titration with lineshape fitting, hIL-1β V47A; type: binding; conditions: two-site exchange model
T2 construct: Mature hIL-1β^V47A was expressed with a C-terminal His6 tag; made in house; host or cells: E. coli

[3] = hIL-1β, 1:1 binding, read-out: KD by NMR lineshape fitting

SMILES | Kd (IL-1β [1]; [3]) [µM] | Kd (IL-1β [1]; hIL-1β, read-out: KD, lineshape fitting of Leu60 Cδ1H3 resonance) [µM] | Kd (IL-1β [1]; initial value used in reporter assay, read-out: KD of the reporter from simulating concentration-dependent lineshapes) [µM] | IC50 (IL-1β [2]) [µM] | Kd (hIL-1β^V47A) [µM]
O=C1Nc2cc(C(F)(F)F)ccc2[C@]1(O)c1cc(Cl)ccc1O [Compound (S)-1] | 287 | 324 ± 5 | 250 | > 200 | 263 ± 40
O=C1Nc2cc(C(F)(F)F)ccc2C1(O)c1cc(Cl)ccc1O (stereo not shown) [Compound 1] | 520 |  |  | > 200 | 

Like-named read-outs stand apart in the source and are kept apart here.
